Experimental data published in US9493451B2 (Bionomics Limited, priority 2011, dated 2016).

Sequences of proteins named here, by UniProt entry; tags and fusion partners are left off.
UniProt P22001, whole entry: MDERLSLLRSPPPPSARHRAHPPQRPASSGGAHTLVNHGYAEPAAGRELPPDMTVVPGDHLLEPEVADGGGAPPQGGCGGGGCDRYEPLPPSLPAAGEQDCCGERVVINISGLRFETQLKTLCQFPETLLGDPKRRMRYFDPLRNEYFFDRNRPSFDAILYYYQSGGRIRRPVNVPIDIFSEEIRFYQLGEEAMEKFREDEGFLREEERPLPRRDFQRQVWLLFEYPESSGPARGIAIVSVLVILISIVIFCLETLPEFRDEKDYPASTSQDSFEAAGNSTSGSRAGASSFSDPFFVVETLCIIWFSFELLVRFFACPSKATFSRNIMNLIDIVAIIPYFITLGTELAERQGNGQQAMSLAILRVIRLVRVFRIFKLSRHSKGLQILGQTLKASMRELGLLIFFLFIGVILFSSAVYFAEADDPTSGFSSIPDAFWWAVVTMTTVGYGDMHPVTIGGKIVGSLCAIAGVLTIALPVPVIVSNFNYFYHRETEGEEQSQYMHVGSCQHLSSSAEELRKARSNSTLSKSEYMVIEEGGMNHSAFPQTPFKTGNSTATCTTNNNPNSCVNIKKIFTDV

Molecular target: Kv1.3 (Homo sapiens, UniProt P22001)
Test: Electrophysiology: planar patch-clamp of Kv1.3 currents, IC50 from steady state current amplitude
Conditions: read-out: IC50 (Kv1.3 ephys steady state), Kv1.3 electrophysiology, results according to Method D1
Description: The inhibition data shown for the compounds of the list below was calculated using the steady state current amplitude at the end of the depolarising pulse in patch clamp evaluations (as described in the Biology Protocols: 1. Electrophysiology).
Kv1.x currents were measured in Kv1.3/CHO or Kv1.5/CHO cells using a planar electrode version (Nanion Technologies GMBH) of the patch-clamp technique. Whole-cell Kv1.x current transients were evoked by 500 ms depolarising voltage pulses to +40 mV from a holding potential of −80 mV applied at 10 s intervals for Kv1.5 and at 30 s intervals for Kv1.3 to allow adequate time for recovery from inactivation. Cells were continuously bathed in a buffered saline solution containing (mM): 160 NaCl, 4.5 KCl, 2 CaCl2, 1 MgCl2, 5 glucose, 10 HEPES, pH 7.4, 290-310 mOsm·Kg^−1. The internal (pipette) solution contained (mM): 10 NaCl, 70 KF, 75 KCl, 2 MgCl2, 10 HEPES, 10 EGTA, pH 7.2, 290-310 mOsm·Kg^−1. Series resistance compensation (60-80%) was applied to cells in which the peak current amplitude exceeded 2 nA.
Compound Preparation and Potency Assessment
Compounds were initially dissolved in DMSO to 10 mM. After further dilution in DMSO, compounds were finally diluted in bath solution 1/200 (to give a final DMSO concentration of 0.5%) and applied directly to the recording chamber. Compounds were added at increasing concentrations allowing ample time for steady state block to be achieved between each concentration. Each compound was tested at 5-6 different concentrations on 2-3 cells. Compound IC50 values were determined by fitting the average normalised reduction of either the current integral or the steady state current amplitude at the end of the 500 ms depolarising pulse obtained at each compound concentration to the Hill equation. The IC50 data reported herein is based on the steady state calculation.

Row | SMILES | IC50
1 | CCC(c1ncnn1C)N(Cc1ccc(C(F)(F)F)nc1)C(=O)[C@@H]1C[C@H]1c1ccc(F)cc1 (stereo partly drawn) | 200 to 1000 nM
2 | CCS(=O)(=O)c1cccc(C(C2CCOCC2)N(Cc2ncccc2F)C(=O)C2CC2c2ccc(F)cc2)c1 (stereo not drawn) | 200 to 1000 nM
3 | O=C(C1CC1c1ccc(F)cc1)N(Cc1ccc(F)cn1)C(c1ccc(OC(F)F)cc1)C1CCNCC1 (stereo not drawn) | 200 to 1000 nM
4 | CC(C)CC(c1ncnn1C)N(Cc1ccc(C(F)(F)F)nc1)C(=O)[C@@H]1C[C@H]1c1ccc(F)cc1 (stereo partly drawn) | 50 to 200 nM
5 | COCC(c1ccnn1C)N(Cc1ccc(C(F)(F)F)nc1)C(=O)CS(=O)(=O)c1ccc(F)cc1 (stereo not drawn) | 200 to 1000 nM
6 | CS(=O)(=O)c1cccc(CN(C(=O)[C@@H]2C[C@H]2c2ccc(F)cc2)C(c2ccc(Cl)cc2)C2CC2)n1 (stereo partly drawn) | < 50 nM
7 | CC(C)Cc1noc(C(C)N(Cc2ccc(C(F)(F)F)nc2)C(=O)[C@@H]2C[C@H]2c2ccc(F)cc2)n1 (single isomer, unassigned) | 50 to 200 nM
8 | CC(C)CC(c1ncnn1C)N(Cc1ccc(C(F)(F)F)nc1)C(=O)C[C@@H](C)c1ccc(F)cc1 (stereo partly drawn) | 200 to 1000 nM
9 | CC(C)C(c1ccc(OC(F)F)cc1)N(Cc1ccc(F)c[n+]1[O-])C(=O)[C@@H]1C[C@H]1c1ccc(F)cc1 (stereo partly drawn) | 50 to 200 nM
